Data from US12421495B2, “Compositions and methods for selective phagocytosis of human cancer cells” (THE TRUSTEES OF THE UNIVERSITY OF PENNSYLVANIA, priority 2015, dated 2025).

Experiments:
tdTomato A549 tumors [1] = conditions: 50-fold higher doses; Hsu et al. 2010; cited from earlier work
tdTomato A549 tumors [2] = experiment: In vivo tumor growth, WT tdTomato A549 tumors; design: species or system NSG mice; conditions: A′PB MΦ day 0 plus twice per week tail-vein targeting Ab after day-3
Description: Establishment of A549 tumors In Vivo. CD47 knockdown and control cells were dissociated from tissue culture flasks using 10 mM EDTA in PBS. 10^6 cells per injection were suspended in 100 μL ice cold PBS and 25% Matrigel (BD) and injected subcutaneously in the flank of non-obese diabetic/severe combined immunodeficient (NOD/SCID) mice with null expression of interleukin-2 receptor gamma chain (NSG mice). Treatment groups were a mix of male and female mice. All animal experiments were planned and performed according to IACUC protocols.
In Vivo Tumor Imaging. Mice were anesthetized via inhalation of isoflurane at 3 L/min and maintained at 1.5 L/min. Images were acquired using a Perkin Elmer IVIS Spectrum with excitation and emission filters set at 535 nm and 580 nm respectively optimized for tdTomato imaging. […] Mouse fur was soaked with ethanol to reduce auto fluorescence prior to imaging. Three Fluorescent standards were used to subtract background fluorescence and calibrate imager. Images were analyzed in Image J where the length and width of the td tomato tumor was measured. […]
Adoptive Transfer of NSG Bone Marrow. […] Cells were then washed, resuspended in 0.1% FBS/PBS, counted and volume adjusted to allow injection of 106 cells. Remaining cells were analyzed by flow cytometry to establish initial composition. […]

Cetuximab
effect of injections on A549 tumor growth (tdTomato A549 tumors [1]): delayed growth of A549 tumors by about half | tumor shrinkage by day 10 (tdTomato A549 tumors [2]): −15%
